{"source": "PubChem BioAssay AID2094", "about": "(Broad Institute, 2009)", "note": "Only a part is listed here, and it is no random draw. Some salts or complexes appear as unconnected parts, following the source record. The source made the active and inactive calls. Rule as the data show it: active = activity change below about -75% (passing the limit was not always enough); inconclusive = no clear call, values can overlap the other calls."}
{"assay": "modulation of AI-2 quorum-sensing luminescence – JMH597 strain, luminescence/OD600 ratio, primary screen (AID 2094);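 also: luminescence divided by OD600 gain over 9 h not by final OD600 alone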", "conditions": "Vibrio harveyi JMH597 AI-2 luminescence/OD600 ratio, 9 h; at 7.5 µM; stronger effect = lower value; 0 = neutral-control median; strain lacks LuxN and CqsS sensors"}
{"compound": "CCN(CC)CC(O)COC(=O)C(O)(c1ccccc1)C1CCCCC1", "note": "(configuration not stated)", "activity change": "inactive: 36.2%"}
{"compound": "COc1ccc(OP(C)(=O)Nc2ccc(Br)cc2)cc1", "note": "(configuration not stated)", "activity change": "inactive: 29.1%"}
{"compound": "COc1ccccc1OP(C)(=O)Nc1c(C)n(C)n(-c2ccccc2)c1=O", "note": "(configuration not stated)", "activity change": "inactive: 39.6%"}
{"compound": "O=C(OCCCN1CCCC1)C(O)(c1ccccc1)C1CCCCC1", "note": "(configuration not stated)", "activity change": "inactive: 1.77%"}
{"compound": "CP(=O)(Oc1ccccc1)N1CCOC1=O", "note": "(configuration not stated)", "activity change": "inactive: -4.09%"}
{"compound": "CCc1ccc(OP(C)(=O)Nc2cccnc2)cc1", "note": "(configuration not stated)", "activity change": "inactive: 19.4%"}
{"compound": "CC(C)(C)c1ccc(OP(C)(=O)O)cc1", "activity change": "inactive: 18.3%"}
{"compound": "COc1ccccc1OP(C)(=O)Nc1ccccc1Br", "note": "(configuration not stated)", "activity change": "inactive: 1.55%"}
{"compound": "CP(=O)(Nc1ccc(Cl)cc1)Oc1ccc(F)cc1", "note": "(configuration not stated)", "activity change": "inactive: 5.91%"}
{"compound": "CN(C)C(=O)c1c([N+](=O)[O-])cc([N+](=O)[O-])cc1[N+](=O)[O-]", "activity change": "inactive: -32.6%"}
{"compound": "Nc1ccc2c(ccc3cccnc32)n1.O=[N+]([O-])c1cc([N+](=O)[O-])c(O)c([N+](=O)[O-])c1", "activity change": "inactive: 20.2%"}
{"compound": "CCOC(=O)c1ccc(NP(C)(=O)Oc2ccc(Cl)cc2)cc1", "note": "(configuration not stated)", "activity change": "inactive: -2.23%"}
{"compound": "CP(=O)(OC12CC3CC(CC(C3)C1)C2)OC12CC3CC(CC(C3)C1)C2", "activity change": "inactive: 28%"}
{"compound": "Cc1cc(C)cc(OP(C)(=O)Nc2cccc(C(F)(F)F)c2)c1", "note": "(configuration not stated)", "activity change": "inactive: 12.8%"}
{"compound": "COc1ccccc1OP(C)(=O)Nc1ccc(C)c(C)c1", "note": "(configuration not stated)", "activity change": "inactive: 11.1%"}
{"compound": "COc1ccc(OP(C)(=O)Nc2ccccc2Br)cc1", "note": "(configuration not stated)", "activity change": "inactive: -3.65%"}
{"compound": "Cc1nc2ccc3ccccc3c2o1.O=[N+]([O-])c1cc([N+](=O)[O-])c(O)c([N+](=O)[O-])c1", "activity change": "inactive: -3.26%"}
{"compound": "CP(=O)(OCCOc1ccccc1)OCCOc1ccccc1", "activity change": "inactive: 11.8%"}
{"compound": "CP(=O)(Nc1ccc(Cl)cc1Cl)Oc1ccccc1", "note": "(configuration not stated)", "activity change": "inactive: 13.7%"}
{"compound": "COc1ccccc1OP(C)(=O)Nc1ccc(Br)cc1", "note": "(configuration not stated)", "activity change": "inactive: -4.27%"}
{"compound": "COc1ccc(OP(C)(=O)Nc2ccccn2)cc1", "note": "(configuration not stated)", "activity change": "inactive: 2.99%"}
{"compound": "CN(C)CCOC(=O)C(O)(c1ccccc1)C1CCCC1", "note": "(configuration not stated)", "activity change": "inactive: 25.6%"}
{"compound": "O=[N+]([O-])c1cc([N+](=O)[O-])c(Nc2ccccn2)c([N+](=O)[O-])c1", "activity change": "active: -158%"}
{"compound": "Cc1c(NP(C)(=O)Oc2ccc(C(C)C)cc2)c(=O)n(-c2ccccc2)n1C", "note": "(configuration not stated)", "activity change": "inactive: -1.92%"}
{"compound": "CP(=O)(Nc1ccccn1)Oc1ccccc1", "note": "(configuration not stated)", "activity change": "inactive: 12.1%"}
{"compound": "COc1ccccc1OP(C)(=O)Nc1ccc(C)cc1C", "note": "(configuration not stated)", "activity change": "inactive: 18.1%"}
{"compound": "CCc1ccc(OP(C)(=O)O)cc1", "activity change": "inactive: 9.21%"}
{"compound": "CP(=O)(Nc1ccccc1F)Oc1ccccc1", "note": "(configuration not stated)", "activity change": "inactive: 0.368%"}
{"compound": "CC(C)c1ccc(OP(C)(=O)Nc2ccc(SC(F)(F)F)cc2)cc1", "note": "(configuration not stated)", "activity change": "inactive: 9.13%"}
{"compound": "O=C(OC1CN2CCC1CC2)c1ccc([N+](=O)[O-])cc1", "note": "(configuration not stated)", "activity change": "inactive: -0.491%"}
{"compound": "O=C(OCCN1CCN(CCOCc2ccccc2)CC1)C(O)(c1ccccc1)c1ccccc1", "activity change": "inactive: 17.6%"}
{"compound": "COc1ccc2c(c1O)-c1c(O)c(OC)cc3c1[C@H](C2)[N+](C)(C)CC3.O=[N+]([O-])c1cc([N+](=O)[O-])c([O-])c([N+](=O)[O-])c1[O-]", "activity change": "inactive: 28.2%"}
{"compound": "CCOC(=O)c1ccc(NP(C)(=O)Oc2ccc(F)cc2)cc1", "note": "(configuration not stated)", "activity change": "inactive: 17.1%"}
{"compound": "COc1ccc(OP(C)(=O)Nc2ccc(SC(F)(F)F)cc2)cc1", "note": "(configuration not stated)", "activity change": "inactive: -6.17%"}
{"compound": "CCN(CC)CCCOC(=O)C(O)(c1ccccc1)C1CCCCC1", "note": "(configuration not stated)", "activity change": "inactive: 15.2%"}
{"compound": "CP(=O)(Nc1ccccc1)Oc1ccc(F)cc1", "note": "(configuration not stated)", "activity change": "inactive: -1.52%"}
{"compound": "CCCCCOc1ccc(NP(C)(=O)Oc2ccc(Cl)cc2Cl)cc1", "note": "(configuration not stated)", "activity change": "inactive: 21.1%"}
{"compound": "O=[N+]([O-])c1cc([N+](=O)[O-])c(OC2CCCCC2O)c([N+](=O)[O-])c1", "note": "(configuration not stated)", "activity change": "inactive: 11%"}
{"compound": "COc1ccc(OP(C)(=O)Nc2cccc(Br)c2)cc1", "note": "(configuration not stated)", "activity change": "inactive: -0.422%"}
{"compound": "CN(C)CCOC(=O)C(O)(c1ccccc1)C1CCCCC1", "note": "(configuration not stated)", "activity change": "inactive: 14.2%"}
{"compound": "COc1ccc(NP(C)(=O)Oc2ccccc2OC)cc1", "note": "(configuration not stated)", "activity change": "inactive: 1.58%"}
{"compound": "O=[N+]([O-])c1ccc(OP2(=O)COCCO2)cc1", "note": "(configuration not stated)", "activity change": "inactive: 12.2%"}
{"compound": "Cc1cc(-c2cccc3ccccc23)c(C)cn1.O=[N+]([O-])c1cc([N+](=O)[O-])c(O)c([N+](=O)[O-])c1", "activity change": "inactive: -0.424%"}
{"compound": "CP(=O)(Nc1ccc(SC(F)(F)F)cc1)Oc1ccc(F)cc1", "note": "(configuration not stated)", "activity change": "inactive: 9.32%"}
{"compound": "CCOP(C)(=S)SCC(=O)NC(C)(CC)C(=O)O", "note": "(configuration not stated)", "activity change": "inactive: -0.777%"}
{"compound": "CP(=O)(Nc1ccc2c(c1)OCCO2)Oc1ccccc1", "note": "(configuration not stated)", "activity change": "inactive: 11.8%"}
{"compound": "Cc1ccccc1NP(C)(=O)Nc1ccccc1C", "activity change": "inactive: 3.71%"}
{"compound": "O=[N+]([O-])c1cc([N+](=O)[O-])c(-n2nnc3ccccc32)c([N+](=O)[O-])c1", "activity change": "inactive: 7.25%"}
{"compound": "O=[N+]([O-])c1cc([N+](=O)[O-])c(-c2cnn(-c3ccccc3)c2)c([N+](=O)[O-])c1", "activity change": "inactive: 40.3%"}
{"compound": "O=[N+]([O-])c1cc([N+](=O)[O-])c(Nc2nnnn2CCO)c([N+](=O)[O-])c1", "activity change": "inactive: 20.6%"}
{"compound": "CCOC(=O)C(CC)C1=NC(C)(C)Cc2ccccc21.O=[N+]([O-])c1cc([N+](=O)[O-])c(O)c([N+](=O)[O-])c1", "note": "(configuration not stated)", "activity change": "inactive: 21.1%"}
{"compound": "CN1CCCCC1COC(=O)C1(O)c2ccccc2CCc2ccccc21", "note": "(configuration not stated)", "activity change": "inactive: -0.0252%"}
{"compound": "COc1ccccc1OP(C)(=O)Nc1c(C)cccc1C", "note": "(configuration not stated)", "activity change": "inactive: 36.6%"}
{"compound": "CP(=O)(Nc1ccc(SC(F)(F)F)cc1)Oc1ccccc1", "note": "(configuration not stated)", "activity change": "inactive: 48.3%"}
{"compound": "CCCOc1ccc(NP(C)(=O)Oc2ccc(Cl)cc2)cc1", "note": "(configuration not stated)", "activity change": "inactive: 9.8%"}
{"compound": "O=C(O)c1cccc(Nc2c([N+](=O)[O-])cc([N+](=O)[O-])cc2[N+](=O)[O-])c1", "activity change": "inactive: 3.03%"}
{"compound": "CC1=NCCc2c1[nH]c1ccccc21.O=[N+]([O-])c1cc([N+](=O)[O-])c(O)c([N+](=O)[O-])c1", "activity change": "inactive: 27.2%"}
{"compound": "COc1ccccc1OP(C)(=O)Nc1cccc(Br)c1", "note": "(configuration not stated)", "activity change": "inactive: -5.48%"}
{"compound": "CCOC(=O)c1ccc(NP(C)(=O)Oc2cc(C)cc(C)c2)cc1", "note": "(configuration not stated)", "activity change": "inactive: 10.4%"}
{"compound": "Cc1cc(C)cc(OP(C)(=O)Nc2ccc(C)cc2C)c1", "note": "(configuration not stated)", "activity change": "inactive: 13.8%"}
{"compound": "Cc1ccc(C)c(NP(C)(=O)Oc2ccccc2)c1", "note": "(configuration not stated)", "activity change": "inactive: 9.22%"}
{"compound": "CP(=O)(Nc1cccc(Br)c1)Oc1ccccc1", "note": "(configuration not stated)", "activity change": "inactive: 6.16%"}
{"compound": "Cc1cc(C)cc(OP(C)(=O)Nc2ccccn2)c1", "note": "(configuration not stated)", "activity change": "inactive: 5.98%"}
{"compound": "CCN(CC)CCCOC(=O)C(O)(c1ccccc1)c1ccccc1", "activity change": "inactive: 20.1%"}
{"compound": "O=[N+]([O-])c1cc([N+](=O)[O-])c(Nc2cccnc2)c([N+](=O)[O-])c1", "activity change": "active: -84.2%"}
{"compound": "O=[N+]([O-])c1ccc2c(c1)C=Nc1ccccc1O2", "activity change": "inactive: 33.7%"}
{"compound": "CC(C)(C)c1ccc(OP(C)(=O)Nc2ccc(SC(F)(F)F)cc2)cc1", "note": "(configuration not stated)", "activity change": "inactive: 40.5%"}
{"compound": "Cc1cccc(C)c1OP(C)(N)=O", "note": "(configuration not stated)", "activity change": "inactive: 5.67%"}
{"compound": "COc1ccccc1OP(C)(=O)Nc1ccc(C)cc1", "note": "(configuration not stated)", "activity change": "inactive: -14.4%"}
{"compound": "Cc1ccc(NP(C)(=O)Oc2ccccc2)c(C)c1", "note": "(configuration not stated)", "activity change": "inactive: 26.8%"}
{"compound": "CCOC(=O)c1ccc(NP(C)(=O)Oc2ccccc2)cc1", "note": "(configuration not stated)", "activity change": "inactive: 28.6%"}
{"compound": "Cc1cc(C)cc(OP(C)(N)=O)c1", "note": "(configuration not stated)", "activity change": "inactive: 15.3%"}
{"compound": "COc1ccccc1OP(C)(=O)Nc1cc(Cl)ccc1C", "note": "(configuration not stated)", "activity change": "inactive: 7.61%"}
{"compound": "COc1ccc(OP(C)(=O)Nc2cccc(F)c2)cc1", "note": "(configuration not stated)", "activity change": "inactive: 9.81%"}
{"compound": "CP(=S)(Nn1cnnc1)Oc1ccccc1", "note": "(configuration not stated)", "activity change": "inactive: 13.9%"}
{"compound": "CP(=O)(Nc1ccccc1Br)Oc1ccccc1", "note": "(configuration not stated)", "activity change": "inactive: 13.5%"}
{"compound": "COc1ccccc1OP(C)(=O)Nc1ccccc1", "note": "(configuration not stated)", "activity change": "inactive: 10%"}
{"compound": "CP(=O)(Nc1ccc(SC(F)(F)F)cc1)Oc1ccc(Cl)cc1", "note": "(configuration not stated)", "activity change": "inactive: 15.2%"}
{"compound": "Cc1cccc(C)c1OP(C)(=O)Nc1ccc(SC(F)(F)F)cc1", "note": "(configuration not stated)", "activity change": "inactive: -10.6%"}
{"compound": "CP(=O)(Oc1ccccc1)OC(c1ccccc1)C(F)(F)F", "note": "(configuration not stated)", "activity change": "inactive: 0.894%"}
{"compound": "CCc1ccc(OP(C)(=O)N2CCN(c3ccc([N+](=O)[O-])cc3)CC2)cc1", "note": "(configuration not stated)", "activity change": "inactive: 16.3%"}
{"compound": "CP(=O)(NC(=O)Nc1ccccc1)Oc1ccccc1", "note": "(configuration not stated)", "activity change": "inactive: -1.36%"}
{"compound": "Cc1cc(C)cc(OP(C)(=O)Nc2ccc(SC(F)(F)F)cc2)c1", "note": "(configuration not stated)", "activity change": "inactive: -7.24%"}
{"compound": "O=[N+]([O-])c1cc([N+](=O)[O-])c(O)c([N+](=O)[O-])c1.c1ccc(Oc2ccncc2)cc1", "activity change": "inactive: 4.36%"}
{"compound": "CCOC(=O)c1ccc(NP(C)(=O)Oc2ccc(OC)cc2)cc1", "note": "(configuration not stated)", "activity change": "inactive: 15.4%"}
{"compound": "CCOP(C)(=S)SCC(=O)NC(C)C(=O)O", "note": "(configuration not stated)", "activity change": "inactive: 19.8%"}
{"compound": "CP(=O)(Nc1ccccn1)Oc1ccc(Cl)cc1", "note": "(configuration not stated)", "activity change": "inactive: 20.2%"}
